In general, IC50 refers to the concentration needed to halve the response being measured.

Chains of the proteins cited; added tags and fusions are not shown. Residues count along the entry.
UniProt P46098, 24-478: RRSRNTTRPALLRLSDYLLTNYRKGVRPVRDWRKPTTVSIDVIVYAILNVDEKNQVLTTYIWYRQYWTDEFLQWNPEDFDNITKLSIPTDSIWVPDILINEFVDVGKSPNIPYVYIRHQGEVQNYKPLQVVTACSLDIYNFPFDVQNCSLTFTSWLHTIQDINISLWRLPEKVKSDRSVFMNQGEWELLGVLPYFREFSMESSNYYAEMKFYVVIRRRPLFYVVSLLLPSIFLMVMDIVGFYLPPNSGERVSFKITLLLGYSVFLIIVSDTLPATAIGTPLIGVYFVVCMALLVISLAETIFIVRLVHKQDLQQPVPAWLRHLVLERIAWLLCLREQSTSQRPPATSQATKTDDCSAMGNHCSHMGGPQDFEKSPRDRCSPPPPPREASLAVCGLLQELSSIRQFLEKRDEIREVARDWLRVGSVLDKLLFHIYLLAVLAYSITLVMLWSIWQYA

Structures can show the parent of a compound that is named as a salt.

The text below walks through data of patent US9303045B2, “5-HT3 receptor antagonists” (Takeda Pharmaceutical Company Limited, priority 2013, dated 2016).

The target of the test is 5HT3a receptor expressed in HEK-293T cells (Homo sapiens (Human), UniProt P46098). Kind of test: Inhibition of Ca flux activity of 5HT3 in vitro assay. Format: cell-based. The settings on record: calcium flux, 5HT 216 nM, approximate values. How it is done:
Inhibition of Ca Flux Activity of 5HT3 In Vitro Assay
The 5HT3 antagonist activity of the compounds of the invention was determined by measuring the ability of the compounds to inhibit the calcium flux activity of […] receptor expressed in HEK-293T cells. HEK-293T cells were transfected with the 5HT3a expression construct using Xtreme Gene 9 (Roche) in 150 mm tissue culture treated plates and incubated for 24 hours at 37° C. Cells were then split and plated at a density of 60K cells/well in poly-lysine coated, black 96-well plates with clear bottoms (BD BioSciences) and incubated overnight at 37° C. Growth media was removed and cells loaded with 200 uL calcium indicator dye in HBSS containing 20 mM HEPES (Calcium 5 Assay kit, Molecular Devices) and incubated at 37° C. for 1 hour. While cells were incubating, the 10× antagonist and agonist/antagonist addition plates were made. […] Test plate and addition plate were loaded into the FlexStation III (Molecular Devices), and using the fluidics, 22.5 uL compound additions were made (at t=˜17 seconds), and fluorescence was measured for 90 seconds, reading every 2.2 seconds. Data sets were analyzed as max minus min using Software Max Pro (Molecular Devices). […]
For orientation: A change in cytosolic calcium serves as a functional read-out for many receptors and channels.

On to `CN1[C@@H]2COC[C@H]1C[C@@H](OC(=O)c1cn(CC#N)c3c(F)nccc13)C2` [Example 142, (1R,5S,7s)-9-methyl-3-oxa-9-azabicyclo[3.3.1]nonan-7-yl 1-(cyanomethyl)-7-fluoro-1H-pyrrolo[2,3-c]pyridine-3-carboxylate, 2,2,2-trifluoroacetic acid salt], for which the IC50 is 946 pM.
The figure for `CN1C2COCC1CC(NC(=O)c1cn(CC(F)F)c3ncc(F)cc13)C2` [Example 68, 1-(2,2-difluoroethyl)-5-fluoro-N-((1R,5S,7S)-9-methyl-3-oxa-9-azabicyclo[3.3.1]nonan-7-yl)-1H-pyrrolo[2,3-b]pyridine-3-carboxamide, 2,2,2-trifluoroacetate] is 950 pM.
